Measured values: patent US20100036088A1, “Selective poly-N-substituted glycine antibiotics” (priority 2008, published 2010)

Tests used:
B. subtilis BR151 = assay type: cell-based; conditions: Table 1
Excerpt: (§1) An initial set of 15 ampetoid analogs was synthesized to determine whether peptoids are affected by structural and sequence modifications in a manner consistent with AMP activities. The designs for ampetoids in this library were derived from two antibacterial and selective amphipathic dodecamers, 1 and 2. Peptoid 1 [H-(Nlys-Nspe-Nspe)4—NH2] is composed of 2/3 Nspe, the peptoid analog of phenylalanine, and 1/3 Nlys, the peptoid analog of lysine (see FIG. 1 for the structures of representative peptoid monomers and corresponding N-substituents). Peptoid 2 [H-(Nlys-Nssb-Nspe)4—NH2] contains 1/3 isoleucine-like Nssb monomers in place of Nspe. The variant sequences were designed to effect changes in chirality, length, hydrophobicity, charge, and amphipathicity. All of these compounds were tested for antibacterial activity against representative BSL1 Gram-negative (E. coli JM109) and Gram-positive (B. subtilis BR151) bacterial strains. As an initial measure of selectivity, the lytic activity of the peptoids was determined against human erythrocytes. Table 1 summarizes the sequences synthesized, the solvent composition at RP-HPLC elution as a relative measure of molecular hydrophobicity, and antibacterial and hemolytic activities.
(§2) Antibacterial assays. MICs were determined according to CLSI M7-A6 protocols in a 96-well microtiter plate. […]

E. coli JM109 = assay type: cell-based; conditions: Table 1
Excerpt: as §1, §2

human erythrocytes = assay: Hemolysis assay; assay type: cell-based; conditions: Table 1
Procedure: Hemolysis assays. Erythrocytes were isolated from freshly drawn, heparanized human blood and resuspended to 20 vol % in PBS (pH 7.4). In a 96-well microtiter plate, 100 μL erythrocyte suspension was added to 100 μL peptoid solution in PBS (prepared by 1:2 serial dilutions), or 100 μL PBS in the case of negative controls. 100% hemolysis wells contained 100 μL blood cell suspension with 100 μL 0.2 vol % Triton X-100. The plate was incubated for 1 h at 37° C., then each well was diluted with 150 μL PBS. The plate was then centrifuged at 1200 g for 15 min, 100 μL of the supernatant from each well transferred to a fresh microtiter plate, and A350 measured.
Hemolysis assays. Erythrocytes were isolated from freshly drawn, heparanized human blood and resuspended in PBS (pH 7.4) to make a 20% volume suspension. Peptoid solutions were prepared by serial dilution (2:1) in a 96-well microtiter plate. For test wells, 100 μL of erythrocyte suspension was added to 100 μL of peptoid solution in PBS; PBS without peptoid was used as the negative control and 0.2 vol % Triton X-100 as the positive control that indicates 100% hemolysis. After 1 hour incubation at 37° C., each well was diluted with 150 μL PBS. Plates were then centrifuged at 1,200×g for 15 minutes to pellet the cells. […]

[1] = RP-HPLC elution solvent composition as measure of molecular hydrophobicity; assay type: physicochemical; conditions: Table 1; percent acetonitrile in water, 0.1% (v/v) TFA at HPLC elution
Excerpt: as §1, with “hemolytic activities. […]” for “hemolytic activities.”

CC[C@H](C)[C@H](NC(=O)CN)C(=O)NCC(=O)N[C@@H](C)C(=O)N[C@H](C(=O)N[C@@H](CC(C)C)C(=O)N[C@@H](CCCCN)C(=O)N[C@H](C(=O)N[C@@H](CC(C)C)C(=O)N[C@H](C(=O)N[C@H](C(=O)NCC(=O)N[C@@H](CC(C)C)C(=O)N1CCC[C@H]1C(=O)N[C@@H](C)C(=O)N[C@@H](CC(C)C)C(=O)N[C@H](C(=O)N[C@@H](CO)C(=O)N[C@@H](Cc1c[nH]c2ccccc12)C(=O)N[C@H](C(=O)N[C@@H](CCCCN)C(=O)N[C@@H](CCCNC(=N)N)C(=O)N[C@@H](CCCCN)C(=O)N[C@@H](CCCNC(=N)N)C(=O)N[C@@H](CCC(N)=O)C(=O)N[C@@H](CCC(N)=O)C(N)=O)[C@@H](C)CC)[C@@H](C)CC)[C@@H](C)O)[C@@H](C)O)C(C)C)C(C)C [melittin, reference compound]
B. subtilis MIC (B. subtilis BR151): 0.78 µM | E. coli MIC (E. coli JM109): 1.6 µM | HD10 (10% hemolytic dose) (human erythrocytes): 2 µM | HD50 (50% hemolytic dose) (human erythrocytes): 6 µM | HPLC elution solvent [1]: 54%
